Assay results from article PMC8122075 (Nature, 2021).

Biological target: the molecule itself
Assay: cryo-EM structure

B1: XLF (natural protein)
chain: MEELEQGLLMQPWAWLQLAENSLLAKVFITKQGYALLVSDLQQVWHEQVDTSVVSQRAKELNKRLTAPPAAFLCHLDNLLRPLLKDAAHPSEATFSCDCVADALILRVRSELSGLPFYWNFHCMLASPSLVSQHLIRPLMGMSLALQCQVRELATLLHMKDLEIQDYQESGATLIRDRLKTEPFEENSFLEQFMIEKLPEACSIGDGKPFVMNLQDLYMAVTTQEVQVGQKHQGAGDPHTSNSASLQGIDSQCVNQPEQLVSSAPTLSAPEKESTGTSGPLQRPQLSKVKRKKPRGLFS
stoichiometry N: 2
